Reference: patent US20120077732A1, “CYCLIC PEPTIDES AND USES THEREOF” (SYDNEY WEST AREA HEALTH SERVICE, priority 2008, published 2012)

System: female Balb/c WT mice
Assay: Dose and administration route tolerability of cyclic C1

CC(C)C[C@@H]1NC(=O)[C@@H](CC(C)C)NC(=O)[C@H](CCCNC(=N)N)NC(=O)[C@@H](CC(C)C)NC(=O)CNC(=O)[C@@H](C(C)C)NC(=O)[C@H](CCCCN)NC(=O)[C@@H](CC(C)C)NC(=O)[C@H](CC(C)C)NC(=O)[C@@H](CC(C)C)NC1=O [C1, LDRLDLLDLLDKVDG] was tested, and the tolerability (200 μg intraperitoneal injection (group 3), listed as cyclic C1) was “did not tolerate”, the tolerability (200 μg intraperitoneal injection (group 3), listed as cyclic C1 peptide) was “exhibit signs of distress” and the tolerability (200 μg subcutaneous injection) was “did not cause any adverse effects”. The tolerability (400 μg intraperitoneal dose) was “death of mice”, the tolerability (50, 100 or 200 μg subcutaneous (groups 4-6), day 0) was “did not show any adverse effects except for some minor irritation (scratching) at the site of injection” and the tolerability (50 or 100 μg intraperitoneal (groups 1 & 2), day 0, first 60 minutes, normal by 2 hours) was “appeared slightly distressed”.
